According to article PMC6163981, “Novel and Selective Rhipicephalus microplus Triosephosphate Isomerase Inhibitors with Acaricidal Activity” (Veterinary Sciences, 2018):

Legend:
mice (strain B6D2F1) = test: Oral acute toxicology in mice (OECD up-and-down)
[1] = tested on: Rhipicephalus microplus partially engorged female ticks; test: Injection of inhibitor into partially engorged females during artificial capillary feeding; details: 2 nmol/tick

O=[N+]([O-])c1cccc2no[n+]([O-])c12
toxicity grade according to the World Health Organization guidelines (mice (strain B6D2F1)): slight toxicity
induced mortality [1]: 100%
